According to ChEMBL document CHEMBL1687833, “Genetic context and biochemical characterization of the IMP-18 metallo-beta-lactamase identified in a Pseudomonas aeruginosa isolate from the United States” (2011):

Legend:
Pseudomonas aeruginosa [1] = assay: Ratio of Kcat to Km for Pseudomonas aeruginosa strain PS 297 metallo-beta-lactamase IMP-1 expressed in Escherichia coli BL21(DE3) assessed as substrate hydrolysis using 100 uM nitrocefin
Pseudomonas aeruginosa [2] = assay: Ratio of Kcat to Km for Pseudomonas aeruginosa strain PS 297 metallo-beta-lactamase IMP18 expressed in Escherichia coli BL21(DE3) assessed as substrate hydrolysis using 100 uM nitrocefin
Pseudomonas aeruginosa [3] = assay: Activity of Pseudomonas aeruginosa strain PS 297 metallo-beta-lactamase IMP-18 expressed in Escherichia coli BL21(DE3) assessed as substrate hydrolysis using 100 uM nitrocefin

## CO[C@@]1(NC(=O)Cc2cccs2)C(=O)N2C(C(=O)O)=C(COC(N)=O)CS[C@@H]21 [CEFOXITIN]
Pseudomonas aeruginosa [1]
  kcat/Km: 2 ×10⁶ /M/s
Pseudomonas aeruginosa [2]
  kcat/Km: 1.8 ×10⁵ /M/s
Pseudomonas aeruginosa [3]
  Km: 11 µM
  kcat: 2 s⁻¹
